Measured values taken from patent publication US6583179B2, “Substituted aminoalkylamide derivatives as antagonists of follicle stimulating hormone” (Ortho-McNeil Pharmaceutical, Inc., priority 1999, dated 2003).

Chains of the proteins cited; added tags and fusions are not shown. Residues count along the entry.
UniProt P23945, 18-695 limits assumed: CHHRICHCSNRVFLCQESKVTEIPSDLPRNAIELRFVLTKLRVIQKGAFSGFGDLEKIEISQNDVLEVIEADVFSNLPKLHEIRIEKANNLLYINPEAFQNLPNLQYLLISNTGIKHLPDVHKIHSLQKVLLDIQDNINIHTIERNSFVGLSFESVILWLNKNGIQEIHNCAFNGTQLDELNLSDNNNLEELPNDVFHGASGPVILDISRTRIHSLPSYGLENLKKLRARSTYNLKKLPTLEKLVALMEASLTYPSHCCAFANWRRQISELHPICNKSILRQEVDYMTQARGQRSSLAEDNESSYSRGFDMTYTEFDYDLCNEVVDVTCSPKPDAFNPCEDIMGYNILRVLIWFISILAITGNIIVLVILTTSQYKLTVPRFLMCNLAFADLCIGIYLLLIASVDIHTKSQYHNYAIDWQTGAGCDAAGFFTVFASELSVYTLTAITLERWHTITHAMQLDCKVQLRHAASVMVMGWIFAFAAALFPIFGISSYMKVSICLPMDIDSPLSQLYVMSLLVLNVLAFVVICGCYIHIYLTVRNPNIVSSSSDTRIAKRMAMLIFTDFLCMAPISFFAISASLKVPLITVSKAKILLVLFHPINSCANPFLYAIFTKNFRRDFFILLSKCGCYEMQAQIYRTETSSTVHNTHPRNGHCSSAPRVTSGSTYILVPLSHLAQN

Columns and labels:
[1] = biological target: human FSH receptor (Homo sapiens, UniProt P23945); experiment: hFSHR CHO cAMP assay (rhFSHR-cLUC cells, FSH-stimulated cAMP, radioimmunoassay); details: read-out: EC50 hFSHR CHO cAMP; inhibition of cAMP produced by EC70 dose of FSH (4.85 nM); maximum concentration 50 μM
[2] = system: Rat Granulosa Cell; experiment: Rat granulosa cell FSH-stimulated cAMP production; details: read-out: Rat Granulosa Cell EC50 cAMP; inhibition of cAMP produced by EC70 dose of FSH (1.4 nM); maximum concentration 50 μM
Protocol: Insulin, diethylstilbesterol, androstenedione, forskolin and DMSO were purchased from Sigma (St. Louis, Mo.). Fungizone, penicillin/streptomycin, charcoal-treated heat inactivated fetal bovine serum (CT-HI-FBS) and Dulbecco's Modified Eagle Medium:Hams F12 medium containing 15 mM Hepes and L-glutamine (DMEM:F12), were purchased from GIBCO BRL (Grand Island, N.Y.).
Ovine FSH (NIADDK-oFSH-17; FSH potency=20 NIH-FSH-S1 U/mg; LH contamination=0.04 times NIH-LH-S1) was received from Ogden Bioservices Corporation, Rockville, Md. Human FSH (Fertinex), was purchased from Serono Pharmaceutical (Framingham, Mass.). Human chorionic gonadotropin (hCG) was purchased from Sigma (St Louis, Mo.).
Immature intact female rats (Wistar-derived strain; 21-23 days old) were implanted with a single pellet (Innovative Research of America, Sarasota, Fla.) containing 2.5 mg diethylstilbesterol (DES) for 3 days. On the third day, the animals were sacrificed, the ovaries were removed, and the granulosa cells were isolated essentially as described in Haynes-Johnson et al., Biol. Reprod., 61 (1), 147-153, (1999). Granulosa cells were plated at a density of 300,000 cells per ml with 0.2 ml added to each well of 96 well culture dishes (Corning, N.Y.). Cultures were incubated at 37° C. in a humidified incubator (95% air, 5% CO2) overnight (18 hours).
Androstenedione (100,000X) was prepared by dissolving the steroid in 100% ethanol, and was subsequently diluted to a final concentration of 10^−7M containing 0.1% ethanol in assay media. The assay media was serum-free, DES-free, insulin-free media, prepared by adding 5 mL pen-strep,1.5 mL fungizone and 5 μL androstenedione to 493.5 mL DMEM F-12 media.
Test compounds were solubilized in 30% dimethyl sulfoxide (DMSO) at a concentration of 10 mM before diluting to appropriate concentrations in assay medium. The final DMSO concentration in the treated cells and in the control cells was 0.75%.
Test plates containing the granulosa cells were preincubated for 18 hours at 37° C. with 95% air, 5% CO2, 100% humidity. The spent media was removed and 50 μl assay media (DMEM:F12) containing 2 mM IBMX (3-isobutyl-1-methyl-xanthine) was added to the cells. Compounds (25 μl) in the appropriate concentration were added followed 5 minutes later by an EC70 dose of FSH (25 μl; 50 ng/ml; 1.4 nM). After 30 minutes @ 22.5° C. (room temperature) the reaction was terminated by addition of 25 μL 0.5 N hydrochloric acid to each well. The amount of cAMP produced was measured by radioimmunoassay in a FlashPlate (DuPont, Boston, Mass.). To each flash plate 60 μL flash plate buffer was added followed by 40 μL acidified cell sample or cAMP standard, followed with the addition of 100 μl ^125l-cAMP trace. The FlashPlates were sealed, incubated overnight @ room temperature, and counted in a Packard TopCount (Packard Instrument Co., Meriden, Conn.). The cAMP radioimmunoassay results were calculated using DPM conversion and log-logit transformation of % binding (Excel program).

Row | Compound | EC50 [1] [nM] | EC50 [2] [nM]
1 | Cc1ccccc1-c1ccc(S(=O)(=O)N(CC(=O)NCC2CCC(CN)CC2)C[C@@H](C)c2ccccc2)cc1 (stereo partly shown) | 130 | 80
2 | COc1ccccc1CN(CC(=O)NCC1CCC(CN)CC1)S(=O)(=O)c1ccccc1Cl (stereo not shown) | 28800 | 6370
3 | COc1ccccc1CN(CC(=O)NCC1CCC(CN)CC1)S(=O)(=O)c1cccc(C(F)(F)F)c1 (stereo not shown) | 12700 | 260
4 | C[C@H](CN(CC(=O)NCCCCCCN)S(=O)(=O)c1ccc(-c2ccccc2Cl)cc1)c1ccccc1 | 160 | 30
5 | COc1ccc(S(=O)(=O)N(CC(=O)NCC2CCC(CN)CC2)Cc2ccccc2OC)c([N+](=O)[O-])c1 (stereo not shown) | 12700 | 4580
6 | COc1ccccc1CCN(CC(=O)NCc1ccc(CN)cc1)S(=O)(=O)c1ccc(-c2ccccc2C(F)(F)F)cc1 | 1820 | 360
7 | COc1cccc(CN(CC(=O)NCC2CCC(CN)CC2)S(=O)(=O)c2ccc(-c3ccc(Cl)cc3Cl)cc2)c1 (stereo not shown) | 5030 | 850
8 | Cc1ccccc1-c1ccc(S(=O)(=O)N(CC(=O)NCc2ccc(CN)cc2)C[C@H](C)c2ccccc2)cc1 [205] | 220 | 50
9 | COc1ccccc1CN(CC(=O)NCC1CCC(CN)CC1)S(=O)(=O)c1c(Cl)cccc1Cl (stereo not shown) | 26200 | 1200
10 | COc1ccccc1CCN(CC(=O)NCc1ccc(CN)cc1)S(=O)(=O)c1cc(Cl)cc(Cl)c1 | 7530 | 2800
11 | COc1ccccc1CCN(CC(=O)NCc1ccc(CN)cc1)S(=O)(=O)c1ccccc1Cl | 1500 | 1630
12 | COc1ccccc1CCN(CC(=O)N[C@H]1CC[C@H](N)CC1)S(=O)(=O)c1ccc(-c2c(C)noc2C)cc1 | 5500 | 1450
13 | COc1cccc(CN(CC(=O)NCC2CCC(CN)CC2)S(=O)(=O)c2ccc(-c3ccccc3OC)cc2)c1 (stereo not shown) | 3290 | 5300
14 | COc1ccccc1CCN(CC(=O)NCc1ccc(CN)cc1)S(=O)(=O)c1ccc(-c2cccc([N+](=O)[O-])c2)cc1 | 3710 | 1390
15 | COc1ccccc1CCN(CC(=O)NCc1ccc(CN)cc1)S(=O)(=O)c1ccc(-c2ccc(F)cc2)s1 | 1600 | 2150
16 | COc1ccccc1CCN(CC(=O)NCc1ccc(CN)cc1)S(=O)(=O)c1cc(Cl)ccc1Cl | 1110 | 1010
17 | C[C@H](CN(CC(=O)NCC1CCC(CN)CC1)S(=O)(=O)c1ccc(-c2cccc(F)c2)cc1)c1ccccc1 (stereo partly shown) | 340 | 90
18 | COc1ccccc1CN(CC(=O)NCC1CCC(CN)CC1)S(=O)(=O)c1cccc([N+](=O)[O-])c1 (stereo not shown) | 33600 | 3700
19 | COc1ccccc1CCN(CC(=O)N[C@H]1CC[C@H](N)CC1)S(=O)(=O)c1ccc(-c2ccc(Cl)cc2)cc1 | 9700 | 1900
20 | COc1ccccc1CCN(CC(=O)NCc1ccc(CN)cc1)S(=O)(=O)c1ccc(-c2ccccc2C)cc1 | 680 | 280
21 | C[C@@H](CN(CC(=O)NCc1ccc(CN)cc1)S(=O)(=O)c1ccc(-c2cccc(Cl)c2)cc1)c1ccccc1 [199] | 830 | 60
22 | COc1ccc(-c2ccc(S(=O)(=O)N(CC(=O)NCC3CCC(CN)CC3)Cc3cccc(OC)c3)cc2)cc1 (stereo not shown) | 2230 | 1810
23 | COc1ccccc1CN(CC(=O)NCC1CCC(CN)CC1)S(=O)(=O)c1cccc(Cl)c1Cl (single isomer, unassigned) [53] | 29000 | 3520
24 | COc1ccccc1CN(CC(=O)NCC1CCC(CN)CC1)S(=O)(=O)c1ccccc1 (stereo not shown) | 1690 | 520
25 | COc1ccccc1CCN(CC(=O)NCc1ccc(CN)cc1)S(=O)(=O)c1cccc(-c2ccccc2F)c1 | 1640 | 1650

Row | Compound | EC50 [1] [nM] | EC50 [2] [nM]
26 | COc1ccc(-c2ccc(S(=O)(=O)N(CC(=O)NCC3CCC(CN)CC3)Cc3ccccc3OC)cc2)cc1 (stereo not shown) | 1060 | 470
27 | COc1ccc(S(=O)(=O)N(CC(=O)NCC2CCC(CN)CC2)Cc2ccccc2OC)cc1C (stereo not shown) | ≥ 50000 | 25700
28 | COc1ccccc1CCN(CC(=O)NCc1ccc(CN)cc1)S(=O)(=O)c1ccc(-c2ccccc2)cc1 | 840 | 5550
29 | COc1ccccc1-c1ccc(S(=O)(=O)N(CC(=O)NCc2ccc(CN)cc2)C[C@H](C)c2ccccc2)cc1 [200] | 320 | 50
30 | COc1ccccc1CCN(CC(=O)NCC1CCC(CN)CC1)S(=O)(=O)c1ccc(-c2ccc(F)cc2)cc1 (stereo not shown) | 670 | 280
31 | COc1cccc(-c2ccc(S(=O)(=O)N(CCc3ccccc3OC)CC(=O)N[C@H]3CC[C@H](N)CC3)cc2)c1 | 10200 | 8630
32 | COc1ccccc1CCN(CC(=O)NCc1ccc(CN)cc1)S(=O)(=O)c1cccc2ccccc12 | 2110 | 1290
33 | COc1ccccc1CN(CC(=O)NCC1CCC(CN)CC1)S(=O)(=O)c1ccc(C(C)(C)C)cc1 (stereo not shown) | 4820 | 1070
34 | COc1ccccc1CCN(CC(=O)NCc1ccc(CN)cc1)S(=O)(=O)c1cccc(Cl)c1 | 3630 | 1160
35 | COc1ccccc1CCN(CC(=O)NCc1ccc(CN)cc1)S(=O)(=O)c1ccc2ccccc2c1 | 540 | 2950
36 | COc1ccccc1CCN(CC(=O)NCc1ccc(CN)cc1)S(=O)(=O)c1ccc(-c2ccccc2OC)cc1 | 560 | 480
37 | COc1ccccc1CN(CC(=O)NCC1CCC(CN)CC1)S(=O)(=O)c1cccc(F)c1 (stereo not shown) | 5990 | 5860
38 | COc1ccccc1CN(CC(=O)NCC1CCC(CN)CC1)S(=O)(=O)c1cc(Cl)cc(Cl)c1 (stereo not shown) | 25000 | 3010
39 | COc1ccccc1CCN(CC(=O)N[C@H]1CC[C@H](N)CC1)S(=O)(=O)c1ccc(-c2ccccc2)cc1 | 12800 | 10200
40 | COc1ccccc1CCN(CC(=O)NCc1ccc(CN)cc1)S(=O)(=O)c1ccc(-c2ccc(F)cc2)cc1 | 570 | 490
41 | COc1ccccc1CCN(CC(=O)N[C@H]1CC[C@H](N)CC1)S(=O)(=O)c1ccc(-c2ccncc2)cc1 | 8390 | 1320
42 | C[C@H](CN(CC(=O)N1CCC(C2CCNCC2)CC1)S(=O)(=O)c1ccc(-c2ccccc2Cl)cc1)c1ccccc1 | 570 | 220
43 | COc1ccccc1CN(CC(=O)NCC1CCC(CN)CC1)S(=O)(=O)Cc1ccccc1 (stereo not shown) | 33400 | 3220
44 | COc1cccc(CN(CC(=O)NCC2CCC(CN)CC2)S(=O)(=O)c2ccc(-c3ccc(C)cc3)cc2)c1 (stereo not shown) | 1410 | 1330
45 | COc1ccccc1CN(CC(=O)NCC1CCC(CN)CC1)S(=O)(=O)c1ccc(Cl)c(Cl)c1 (stereo not shown) | 8920 | 720
46 | COc1ccccc1CN(CC(=O)NCC1CCC(CN)CC1)S(=O)(=O)c1cc(Cl)sc1Cl (stereo not shown) | 3620 | 1080
47 | COc1ccccc1CN(CC(=O)NCC1CCC(CN)CC1)S(=O)(=O)c1ccc(Cl)cc1Cl (stereo not shown) | 31300 | 2060
48 | COc1ccccc1CCN(CC(=O)N[C@H]1CC[C@H](N)CC1)S(=O)(=O)c1ccc(-c2cccs2)cc1 | 9540 | 32900
49 | COc1ccccc1CCN(CC(=O)N[C@H]1CC[C@H](N)CC1)S(=O)(=O)c1ccc(-c2cccc(C(N)=O)c2)cc1 | 31300 | 8000
50 | COc1ccccc1CCN(CC(=O)N[C@H]1CC[C@H](N)CC1)S(=O)(=O)c1ccc(-c2cccnc2)cc1 | 28300 | 550
